Assay results taken from patent US9302989B2 (priority 2010, dated 2016).

Chains of the proteins cited; added tags and fusions are not shown. Lines headed by an entry give the natural chain unless they say otherwise; changes in a name come on top.
UniProt P43490: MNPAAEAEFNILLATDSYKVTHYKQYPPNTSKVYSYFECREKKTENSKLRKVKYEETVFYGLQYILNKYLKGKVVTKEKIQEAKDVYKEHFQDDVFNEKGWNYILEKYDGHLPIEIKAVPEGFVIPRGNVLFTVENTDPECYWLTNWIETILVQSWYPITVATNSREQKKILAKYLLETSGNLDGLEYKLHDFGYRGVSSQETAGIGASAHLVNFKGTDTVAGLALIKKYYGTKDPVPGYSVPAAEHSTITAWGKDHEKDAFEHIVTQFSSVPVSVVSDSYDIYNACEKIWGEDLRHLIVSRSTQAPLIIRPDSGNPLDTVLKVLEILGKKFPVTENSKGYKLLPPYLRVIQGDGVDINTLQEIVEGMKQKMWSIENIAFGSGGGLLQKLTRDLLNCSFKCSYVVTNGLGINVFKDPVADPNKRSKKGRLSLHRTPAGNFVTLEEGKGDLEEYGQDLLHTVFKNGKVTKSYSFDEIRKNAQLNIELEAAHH

Biological target: NAMPT (Homo sapiens (Human), UniProt P43490)
Conditions: read-out: TR-FRET Binding IC50 (μM) probe 1

Compound	IC50 [µM]
CCn1cc(NC(=O)c2ccc(NC(=O)N3Cc4ccc(F)cc4C3)cc2)cn1 [Example 48, N-{4-[(1-ethyl-1H-pyrazol-4-yl)carbamoyl]phenyl}-5-fluoro-1,3-dihydro-2H-isoindole-2-carboxamide]	0.0186
O=C(Nc1cnn(Cc2ccccc2)c1)c1ccc(NC(=O)N2Cc3ccc(F)cc3C2)cc1 [Example 49, N-{4-[(1-benzyl-1H-pyrazol-4-yl)carbamoyl]phenyl}-5-fluoro-1,3-dihydro-2H-isoindole-2-carboxamide]	0.0186
O=C(Nc1ccc(C(=O)N2CCN(c3cnccn3)CC2)cc1)N1Cc2ccccc2C1 [Example 51, N-(4-{[4-(pyrazin-2-yl)piperazin-1-yl]carbonyl}phenyl)-1,3-dihydro-2H-isoindole-2-carboxamide]	0.0191
COc1ccccc1N1CCN(C(=O)c2ccc(NC(=O)N3Cc4ccccc4C3)cc2)CC1 [Example 52, N-(4-{[4-(2-methoxyphenyl)piperazin-1-yl]carbonyl}phenyl)-1,3-dihydro-2H-isoindole-2-carboxamide]	0.0197
CC(C)(C)CCNC(=O)c1ccc(NC(=O)N2Cc3ccccc3C2)cc1 [Example 53, N-{4-[(3,3-dimethylbutyl)carbamoyl]phenyl}-1,3-dihydro-2H-isoindole-2-carboxamide]	0.0197
COc1cccc(N2CCN(C(=O)c3ccc(NC(=O)N4Cc5ccccc5C4)cc3)CC2)c1 [Example 55, N-(4-{[4-(3-methoxyphenyl)piperazin-1-yl]carbonyl}phenyl)-1,3-dihydro-2H-isoindole-2-carboxamide]	0.0202
CC(=O)c1ccc(N2CCN(C(=O)c3ccc(NC(=O)N4Cc5ccccc5C4)cc3)CC2)cc1 [Example 56, N-(4-{[4-(4-acetylphenyl)piperazin-1-yl]carbonyl}phenyl)-1,3-dihydro-2H-isoindole-2-carboxamide]	0.0203
COc1cccc(CCNC(=O)c2ccc(NC(=O)N3Cc4ccccc4C3)cc2)c1OC [Example 57, N-(4-{[2-(2,3-dimethoxyphenyl)ethyl]carbamoyl}phenyl)-1,3-dihydro-2H-isoindole-2-carboxamide]	0.0211
O=C(NCc1ccsc1)c1ccc(NC(=O)N2Cc3ccccc3C2)cc1 [Example 58, N-{4-[(3-thienylmethyl)carbamoyl]phenyl}-1,3-dihydro-2H-isoindole-2-carboxamide]	0.0212
O=C(NCc1ccccn1)c1ccc(NC(=O)N2Cc3ccccc3C2)cc1 [Example 60, N-{4-[(pyridin-2-ylmethyl)carbamoyl]phenyl}-1,3-dihydro-2H-isoindole-2-carboxamide]	0.0224
O=C(NCCc1cccs1)c1ccc(NC(=O)N2Cc3ccc(F)cc3C2)cc1 [Example 61, 5-fluoro-N-(4-{[2-(2-thienyl)ethyl]carbamoyl}phenyl)-1,3-dihydro-2H-isoindole-2-carboxamide]	0.0225
CC(C)CCn1cc(NC(=O)c2ccc(NC(=O)N3Cc4ccccc4C3)cc2)cn1 [Example 63, N-(4-{[1-(3-methylbutyl)-1H-pyrazol-4-yl]carbamoyl}phenyl)-1,3-dihydro-2H-isoindole-2-carboxamide]	0.0236
O=C(Nc1ccc(C(=O)N2CCN(c3ccccn3)CC2)cc1)N1Cc2cccc(Cl)c2C1 [Example 64, 4-chloro-N-(4-{[4-(pyridin-2-yl)piperazin-1-yl]carbonyl}phenyl)-1,3-dihydro-2H-isoindole-2-carboxamide]	0.0237
O=C(Nc1ccc(C(=O)N2CCN(c3ccccc3)CC2)cc1)N1Cc2ccccc2C1 [Example 65, N-{4-[(4-phenylpiperazin-1-yl)carbonyl]phenyl}-1,3-dihydro-2H-isoindole-2-carboxamide]	0.0238
NCCCCCCNC(=O)c1ccc(NC(=O)N2Cc3ccccc3C2)cc1 [Example 66, N-{4-[(6-aminohexyl)carbamoyl]phenyl}-1,3-dihydro-2H-isoindole-2-carboxamide]	0.024
CC(C)CCNC(=O)c1ccc(NC(=O)N2Cc3cccc(Cl)c3C2)cc1 [Example 67, 4-chloro-N-{4-[(3-methylbutyl)carbamoyl]phenyl}-1,3-dihydro-2H-isoindole-2-carboxamide]	0.0241
O=C(NCCc1cccs1)c1ccc(NC(=O)N2Cc3ccccc3C2)cc1 [Example 68, N-(4-{[2-(2-thienyl)ethyl]carbamoyl}phenyl)-1,3-dihydro-2H-isoindole-2-carboxamide]	0.0247
COc1ccc2c(c1)CN(C(=O)Nc1ccc(C(=O)N3CCN(c4ccccn4)CC3)cc1)C2 [Example 69, 5-methoxy-N-(4-{[4-(pyridin-2-yl)piperazin-1-yl]carbonyl}phenyl)-1,3-dihydro-2H-isoindole-2-carboxamide]	0.0248
O=C(NCc1ccc2c(c1)OCO2)c1ccc(NC(=O)N2Cc3ccccc3C2)cc1 [Example 70, N-{4-[(1,3-benzodioxol-5-ylmethyl)carbamoyl]phenyl}-1,3-dihydro-2H-isoindole-2-carboxamide]	0.0248
COc1cccc(CNC(=O)c2ccc(NC(=O)N3Cc4ccccc4C3)cc2)c1 [Example 71, N-{4-[(3-methoxybenzyl)carbamoyl]phenyl}-1,3-dihydro-2H-isoindole-2-carboxamide]	0.0256

Compound	IC50 [µM]
O=C(Nc1ccc(C(=O)N2CCN(c3cccnc3)CC2)cc1)N1Cc2ccccc2C1 [Example 72, N-(4-{[4-(pyridin-3-yl)piperazin-1-yl]carbonyl}phenyl)-1,3-dihydro-2H-isoindole-2-carboxamide]	0.0258
O=C(NCc1ccccc1)c1ccc(NC(=O)N2Cc3ccccc3C2)cc1 [Example 73, N-[4-(benzylcarbamoyl)phenyl]-1,3-dihydro-2H-isoindole-2-carboxamide]	0.0267
O=C(Nc1ccc(C(=O)N2CCN(c3cccnn3)CC2)cc1)N1Cc2ccccc2C1 [Example 74, N-(4-{[4-(pyridazin-3-yl)piperazin-1-yl]carbonyl}phenyl)-1,3-dihydro-2H-isoindole-2-carboxamide]	0.0273
O=C(NCc1ccncn1)c1ccc(NC(=O)N2Cc3ccccc3C2)cc1 [Example 75, N-{4-[(pyrimidin-4-ylmethyl)carbamoyl]phenyl}-1,3-dihydro-2H-isoindole-2-carboxamide]	0.0274
O=C(Nc1ccc(C(=O)N2CCN(c3cccc(F)c3)CC2)cc1)N1Cc2ccccc2C1 [Example 76, N-(4-{[4-(3-fluorophenyl)piperazin-1-yl]carbonyl}phenyl)-1,3-dihydro-2H-isoindole-2-carboxamide]	0.0278
O=C(Nc1ccc(C(=O)N2CCN(c3ccccn3)CC2)cc1)N1Cc2ccc(C(F)(F)F)cc2C1 [Example 78, N-(4-{[4-(pyridin-2-yl)piperazin-1-yl]carbonyl}phenyl)-5-(trifluoromethyl)-1,3-dihydro-2H-isoindole-2-carboxamide]	0.0293
CCCCOCCCNC(=O)c1ccc(NC(=O)N2Cc3ccccc3C2)cc1 [Example 79, N-{4-[(3-butoxypropyl)carbamoyl]phenyl}-1,3-dihydro-2H-isoindole-2-carboxamide]	0.0295
O=C(N[C@H](CO)c1ccccc1)c1ccc(NC(=O)N2Cc3ccccc3C2)cc1 [Example 80, N-(4-{[(1S)-2-hydroxy-1-phenylethyl]carbamoyl}phenyl)-1,3-dihydro-2H-isoindole-2-carboxamide]	0.0299
O=C(NCCc1ccc(O)c(O)c1)c1ccc(NC(=O)N2Cc3ccccc3C2)cc1 [Example 81, N-(4-{[2-(3,4-dihydroxyphenyl)ethyl]carbamoyl}phenyl)-1,3-dihydro-2H-isoindole-2-carboxamide]	0.0301
CCCOCCCNC(=O)c1ccc(NC(=O)N2Cc3ccccc3C2)cc1 [Example 82, N-{4-[(3-propoxypropyl)carbamoyl]phenyl}-1,3-dihydro-2H-isoindole-2-carboxamide]	0.0301
O=C(NCc1ccoc1)c1ccc(NC(=O)N2Cc3ccccc3C2)cc1 [Example 83, N-{4-[(3-furylmethyl)carbamoyl]phenyl}-1,3-dihydro-2H-isoindole-2-carboxamide]	0.0306
N#Cc1ccccc1N1CCN(C(=O)c2ccc(NC(=O)N3Cc4ccccc4C3)cc2)CC1 [Example 84, N-(4-{[4-(2-cyanophenyl)piperazin-1-yl]carbonyl}phenyl)-1,3-dihydro-2H-isoindole-2-carboxamide]	0.0308
Cc1c(O)cccc1NC(=O)c1ccc(NC(=O)N2Cc3ccccc3C2)cc1 [Example 85, N-{4-[(3-hydroxy-2-methylphenyl)carbamoyl]phenyl}-1,3-dihydro-2H-isoindole-2-carboxamide]	0.0313
CC(C)CCNC(=O)c1ccc(NC(=O)N2Cc3ccc(C(F)(F)F)cc3C2)cc1 [Example 86, N-{4-[(3-methylbutyl)carbamoyl]phenyl}-5-(trifluoromethyl)-1,3-dihydro-2H-isoindole-2-carboxamide]	0.0319
Cc1n[nH]c2ccc(NC(=O)c3ccc(NC(=O)N4Cc5ccccc5C4)cc3)cc12 [Example 87, N-{4-[(3-methyl-1H-indazol-5-yl)carbamoyl]phenyl}-1,3-dihydro-2H-isoindole-2-carboxamide]	0.0326
CCOCCCNC(=O)c1ccc(NC(=O)N2Cc3ccccc3C2)cc1 [Example 88, N-{4-[(3-ethoxypropyl)carbamoyl]phenyl}-1,3-dihydro-2H-isoindole-2-carboxamide]	0.033
O=C(Nc1ccc(C(=O)N2CCN(c3cnccn3)CC2)cc1)N1Cc2ccc(C(F)(F)F)cc2C1 [Example 89, N-(4-{[4-(pyrazin-2-yl)piperazin-1-yl]carbonyl}phenyl)-5-(trifluoromethyl)-1,3-dihydro-2H-isoindole-2-carboxamide]	0.0334
COc1ccc(OC)c(CCNC(=O)c2ccc(NC(=O)N3Cc4ccccc4C3)cc2)c1 [Example 90, N-(4-{[2-(2,5-dimethoxyphenyl)ethyl]carbamoyl}phenyl)-1,3-dihydro-2H-isoindole-2-carboxamide]	0.0335
O=C(NCC1CCOC1)c1ccc(NC(=O)N2Cc3ccccc3C2)cc1 (stereo not drawn) [Example 91, N-{4-[(tetrahydrofuran-3-ylmethyl)carbamoyl]phenyl}-1,3-dihydro-2H-isoindole-2-carboxamide]	0.0342
